The values below are quoted from earlier work in USRE50618E1, “Anionic-core composition for delivery of therapeutic agents, and methods of making and using the same” (PharmaIN Corporation, priority 2009, dated 2025).

The conditions of this series: stated in the description; cited from earlier work.

Take “Interferon beta: type I interferon used for treatment of Multiple sclerosis”: the “isoelectric point (pI)” value is on record as 8.9-9.7.
